# Yeast mating assay 2: variants of the scFv Ab-91

The measurements come from Engelhart et al. 2022 (doi:10.1038/s41597-022-01779-4) through the FLAb antibody collection.

Binding partner: SARS-CoV-2 spike HR2 peptide, sequence PDVDLGDISGINAS.

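Phage display of a naive human antibody library on the peptide gave the parent. AAYL51 was designed without a model: most single CDR substitutions and a random sample of double and triple ones. Affinity was read by AlphaSeq, a pooled yeast mating assay with surface-displayed partners. Binding brings cells together so that they mate, and sequencing counts the barcode pairs among the diploids. Read counts were normalised to the haploid input and turned into Kd by a linear fit to BCL2-family pairs of known affinity, for each replicate. Each pool was mated in three replicate cultures.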

Ab-91 is the parent antibody, in scFv form: VL, then a (GGGGS)3 linker, then VH. The light chain is unchanged in all variants.
VL: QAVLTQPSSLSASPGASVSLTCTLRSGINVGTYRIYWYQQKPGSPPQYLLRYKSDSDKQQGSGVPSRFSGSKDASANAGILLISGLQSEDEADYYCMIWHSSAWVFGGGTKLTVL
VH: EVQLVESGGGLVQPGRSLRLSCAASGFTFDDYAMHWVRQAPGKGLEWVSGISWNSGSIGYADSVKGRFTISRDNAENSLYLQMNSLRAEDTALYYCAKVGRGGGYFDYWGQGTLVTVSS

Sequences are complete VH domains.
The Kd shown is the geometric mean over detected replicates; a lower Kd is a better binder.
An entry "not detected" has no value in the source: the pair was not observed among the diploids in any replicate. This suggests poor binding but is not conclusive.
In this assay the parent's reference entry averaged 72 nM; its copy inside this library read 7.5 nM.

{"VH": "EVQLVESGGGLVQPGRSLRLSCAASGFTFDMYAMHWVRQAPGKGLEWVSGISWNSGSIGYADSVKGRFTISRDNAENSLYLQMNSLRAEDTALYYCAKVGREGGYFDIWGQGTLVTVSS", "Kd (apparent)": "not detected", "seen in": "0 of 3"}
{"VH": "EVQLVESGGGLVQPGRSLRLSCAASGFTFDDYLMSWVRQAPGKGLEWVSGIEWNSGSIGYADSVKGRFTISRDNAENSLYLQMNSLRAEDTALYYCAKVGRGGGYFDYWGQGTLVTVSS", "Kd (apparent)": "not detected", "seen in": "0 of 3"}
{"VH": "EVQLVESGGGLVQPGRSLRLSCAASGFTFDDYAEHWVRQAPGKGLEWVSGDSWNSGSIGYADSVKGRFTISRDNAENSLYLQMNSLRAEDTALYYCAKVGRGGGYFDYWGQGTLVTVSS", "Kd (apparent)": "not detected", "seen in": "0 of 3"}
{"VH": "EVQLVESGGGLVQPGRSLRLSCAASGFLFDDYVMHWVRQAPGKGLEWVSGISWNSGSIGYADSVKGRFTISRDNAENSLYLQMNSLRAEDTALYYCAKFGRGGGYFDYWGQGTLVTVSS", "Kd (apparent)": "180 µM", "seen in": "1 of 3"}
{"VH": "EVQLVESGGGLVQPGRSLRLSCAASGFTFDDYAMHWVRQAPGKGLEWVSGISWNSGSQGYADSVFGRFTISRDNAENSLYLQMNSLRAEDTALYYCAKVGRGGGYFDWWGQGTLVTVSS", "Kd (apparent)": "75 nM", "seen in": "3 of 3"}
{"VH": "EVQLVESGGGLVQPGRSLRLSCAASGFTKDDYWMHWVRQAPGKGLEWVSGCSWNSGSIGYADSVKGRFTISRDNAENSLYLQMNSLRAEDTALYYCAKVGRGGGYFDYWGQGTLVTVSS", "Kd (apparent)": "45 µM", "seen in": "1 of 3"}
{"VH": "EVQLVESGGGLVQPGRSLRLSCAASLFTFDDYAMHWVRQAPGKGLEWVSGISWNSGSIGHADSVKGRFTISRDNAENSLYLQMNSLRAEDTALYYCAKVGRGGGDFDYWGQGTLVTVSS", "Kd (apparent)": "14 µM", "seen in": "2 of 3"}
{"VH": "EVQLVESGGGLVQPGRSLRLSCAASGFTFDDYANHWVRQAPGKGLEWVSGYSWNSGSIGYADSVKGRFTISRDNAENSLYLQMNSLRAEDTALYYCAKVSRGGGYFDYWGQGTLVTVSS", "Kd (apparent)": "2.5 mM", "seen in": "2 of 3"}
{"VH": "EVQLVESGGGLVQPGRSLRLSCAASGFTFKDYAMHWVRQAPGKGLEWVSGISWNPGSIGAADSVKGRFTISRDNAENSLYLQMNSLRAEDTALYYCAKVGRGGGYFDYWGQGTLVTVSS", "Kd (apparent)": "4.5 µM", "seen in": "1 of 3"}
{"VH": "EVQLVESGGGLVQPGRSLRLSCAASGFTFDDYAMHWVRQAPGKGLEWVSEIRWNSPSIGYADSVKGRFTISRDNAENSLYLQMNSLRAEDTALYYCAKVGRGGGYFDYWGQGTLVTVSS", "Kd (apparent)": "not detected", "seen in": "0 of 3"}
{"VH": "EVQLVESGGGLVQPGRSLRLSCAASGFTFKDYAMHWVRQAPGKGLEWVSGISWNSGSIGYADSVEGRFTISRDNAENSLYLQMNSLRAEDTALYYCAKVGRGGGKFDYWGQGTLVTVSS", "Kd (apparent)": "300 nM", "seen in": "3 of 3"}
{"VH": "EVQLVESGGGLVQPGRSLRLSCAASGFTFDDYAMHWVRQAPGKGLEWVSGGSWNSLSIGYADSVKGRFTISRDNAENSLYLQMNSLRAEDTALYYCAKSGRGGGYFDYWGQGTLVTVSS", "Kd (apparent)": "40 µM", "seen in": "2 of 3"}
{"VH": "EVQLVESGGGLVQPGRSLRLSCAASGFTFDDYAQHWVRQAPGKGLEWVSGISWGSGSFGYADSVKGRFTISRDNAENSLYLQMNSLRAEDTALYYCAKVGRGGGYFDYWGQGTLVTVSS", "Kd (apparent)": "440 µM", "seen in": "1 of 3"}
{"VH": "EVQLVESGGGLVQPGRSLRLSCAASGFTFDVYAGHWVRQAPGKGLEWVSGISWNSGSIGYADSVKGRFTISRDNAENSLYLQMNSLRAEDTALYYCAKVGRGGDYFDYWGQGTLVTVSS", "Kd (apparent)": "not detected", "seen in": "0 of 3"}
{"VH": "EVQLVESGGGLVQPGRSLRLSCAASGFTFDDYAMRWVRQAPGKGLEWVSGISWDSGSIGQADSVKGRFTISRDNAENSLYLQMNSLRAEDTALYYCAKVGRGGGYFDYWGQGTLVTVSS", "Kd (apparent)": "not detected", "seen in": "0 of 3"}

Excerpt, the first 2 entries:

{"VH": "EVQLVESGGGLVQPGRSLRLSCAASGFTFDMYAMHWVRQAPGKGLEWVSGISWNSGSIGYADSVKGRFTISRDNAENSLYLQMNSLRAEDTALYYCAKVGREGGYFDIWGQGTLVTVSS", "Kd (apparent)": "not detected", "seen in": "0 of 3"}
{"VH": "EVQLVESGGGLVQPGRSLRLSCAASGFTFDDYLMSWVRQAPGKGLEWVSGIEWNSGSIGYADSVKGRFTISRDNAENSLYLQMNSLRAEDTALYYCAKVGRGGGYFDYWGQGTLVTVSS", "Kd (apparent)": "not detected", "seen in": "0 of 3"}

As a blank, each scFv also met three strains without target: over library AAYL51, 21% of these pairings were detected, typically at 34 µM and seldom below 1.8 µM.